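The compound was tested at five concentrations on cells cultured in 96-well plates, with a 48-hour exposure period. TGI: concentration producing complete growth inhibition.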
How the values were obtained:
Assay in all cases: growth of human tumour cells (NCI), 48 h
NCI-H226 lung = test system: NCI-H226 lung
NCI-H460 lung = test system: NCI-H460 lung
SK-MEL-28 melanoma = test system: SK-MEL-28 melanoma
A498 renal = test system: A498 renal
ACHN renal = test system: ACHN renal
CAKI-1 renal = test system: CAKI-1 renal
EKVX NSCLC = test system: EKVX NSCLC
RPMI-8226 leukemia = test system: RPMI-8226 leukemia
RXF 393 renal = test system: RXF 393 renal
COLO 205 colon = test system: COLO 205 colon
NCI-H522 lung = test system: NCI-H522 lung
SN12C renal = test system: SN12C renal
HOP-92 NSCLC = test system: HOP-92 NSCLC
HT29 colon = test system: HT29 colon
HL-60(TB) leukemia = test system: HL-60(TB) leukemia
BT-549 breast = test system: BT-549 breast
HCT-15 colon = test system: HCT-15 colon
TK-10 renal = test system: TK-10 renal
MDA-MB-435 = test system: MDA-MB-435
NCI-H23 lung = test system: NCI-H23 lung
OVCAR-5 ovarian = test system: OVCAR-5 ovarian
SR leukemia = test system: SR leukemia
786-0 renal = test system: 786-0 renal
KM12 colon = test system: KM12 colon
OVCAR-4 ovarian = test system: OVCAR-4 ovarian
SW-620 colon = test system: SW-620 colon
SK-OV-3 ovarian = test system: SK-OV-3 ovarian
SNB-19 CNS = test system: SNB-19 CNS
NCI-H322M lung = test system: NCI-H322M lung
U251 CNS = test system: U251 CNS
CCRF-CEM leukemia = test system: CCRF-CEM leukemia
SK-MEL-2 melanoma = test system: SK-MEL-2 melanoma
HCC-2998 colon = test system: HCC-2998 colon
DU-145 prostate = test system: DU-145 prostate
SF-268 CNS = test system: SF-268 CNS
UACC-257 melanoma = test system: UACC-257 melanoma
HOP-62 NSCLC = test system: HOP-62 NSCLC
MDA-MB-231 breast = test system: MDA-MB-231 breast
SK-MEL-5 melanoma = test system: SK-MEL-5 melanoma
SF-295 CNS = test system: SF-295 CNS
MOLT-4 leukemia = test system: MOLT-4 leukemia
IGROV1 ovarian = test system: IGROV1 ovarian
UACC-62 melanoma = test system: UACC-62 melanoma
HCT-116 colon = test system: HCT-116 colon
LOX IMVI melanoma = test system: LOX IMVI melanoma
PC-3 prostate = test system: PC-3 prostate
MDA-N = test system: MDA-N
UO-31 renal = test system: UO-31 renal
MALME-3M melanoma = test system: MALME-3M melanoma
MCF7 breast = test system: MCF7 breast
OVCAR-3 ovarian = test system: OVCAR-3 ovarian

Measured: TGI

[N-]=[N+]=CC(=O)OCCCN=[N+]=[N-]
> 100 µM: all assays above
